Measured values taken from publication PMC5668434, “Modulation of telomere protection by the PI3K/AKT pathway” (Nature Communications, 2017).

Sequences of proteins named here, by UniProt entry; tags and fusion partners are left off.
UniProt P42336, whole entry: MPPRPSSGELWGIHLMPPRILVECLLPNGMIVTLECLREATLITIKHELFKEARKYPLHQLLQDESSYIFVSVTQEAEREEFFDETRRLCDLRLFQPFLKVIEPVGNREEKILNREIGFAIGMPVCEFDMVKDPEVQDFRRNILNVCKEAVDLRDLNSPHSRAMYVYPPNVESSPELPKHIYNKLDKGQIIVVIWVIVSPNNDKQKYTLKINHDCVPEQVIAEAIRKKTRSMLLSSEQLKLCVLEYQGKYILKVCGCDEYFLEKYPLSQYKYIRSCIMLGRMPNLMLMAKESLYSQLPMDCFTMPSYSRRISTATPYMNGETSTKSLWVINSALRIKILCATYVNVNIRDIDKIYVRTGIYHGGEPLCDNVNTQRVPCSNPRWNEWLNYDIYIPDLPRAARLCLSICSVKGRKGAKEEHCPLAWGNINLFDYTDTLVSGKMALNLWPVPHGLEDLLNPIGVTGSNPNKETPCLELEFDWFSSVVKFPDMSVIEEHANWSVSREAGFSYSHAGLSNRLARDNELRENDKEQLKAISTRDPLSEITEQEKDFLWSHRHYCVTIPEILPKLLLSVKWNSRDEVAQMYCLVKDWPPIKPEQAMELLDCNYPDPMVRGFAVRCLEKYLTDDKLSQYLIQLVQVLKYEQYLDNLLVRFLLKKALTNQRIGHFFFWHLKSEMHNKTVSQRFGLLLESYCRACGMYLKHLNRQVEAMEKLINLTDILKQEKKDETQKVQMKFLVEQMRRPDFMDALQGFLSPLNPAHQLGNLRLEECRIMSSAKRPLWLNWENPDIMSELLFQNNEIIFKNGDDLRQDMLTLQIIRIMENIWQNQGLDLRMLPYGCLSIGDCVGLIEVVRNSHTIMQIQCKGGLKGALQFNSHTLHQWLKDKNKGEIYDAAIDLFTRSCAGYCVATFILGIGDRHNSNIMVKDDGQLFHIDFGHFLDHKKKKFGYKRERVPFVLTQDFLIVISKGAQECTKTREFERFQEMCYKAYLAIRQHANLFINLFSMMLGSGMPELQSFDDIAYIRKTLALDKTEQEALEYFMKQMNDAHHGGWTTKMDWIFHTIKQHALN

Key:
PI3K (p110α) = target: T1, PI3K (p110α) (Homo sapiens, UniProt P42336); assay: PI3K alpha biochemical assay (ADP Hunter Plus); conditions: internal data; read-out: PI3Kα IC50
T1 construct: purchased Cama Biosciences (sic; Carna Biosciences) #07CBS-0402A

mTOR (FRAP1) = target: T2, mTOR (FRAP1) (Homo sapiens, UniProt P42345); assay: mTOR biochemical assay (LanthaScreen)
T2 construct: purchased ThermoFisher PV4753

Structure (SMILES)	IC50 (PI3K (p110α)) [nM]	mTOR inhibition (in words) (mTOR (FRAP1))
COCCNC(=O)c1nc2c(N3CCOCC3)nc(-c3cnc(N)nc3)cn2c1C [ETP-46992]	0.9	
COc1ncc(-c2ccc3nccc(-c4ccnnc4)c3c2)cc1NS(=O)(=O)c1ccc(F)cc1F [GSK-2126458]		potent nanomolar mTOR inhibition
